AlphaSeq binding of Ab-14 heavy chain variants to a spike HR2 peptide

From the AlphaSeq antibody data of Li et al. 2023 (doi:10.1038/s41467-023-39022-2), copy in the FLAb collection.

Antigen: PDVDLGDISGINAS, a 14-residue peptide of the SARS-CoV-2 spike HR2 region.

Each scFv is VH, a 15-residue (Gly4Ser)3 linker, VL, as in the parent Ab-14, and differs from it in the CDRs of the heavy chain only.
VH: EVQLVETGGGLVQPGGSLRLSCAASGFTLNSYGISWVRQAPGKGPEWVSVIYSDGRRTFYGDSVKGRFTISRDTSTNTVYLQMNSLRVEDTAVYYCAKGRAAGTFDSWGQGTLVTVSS
VL: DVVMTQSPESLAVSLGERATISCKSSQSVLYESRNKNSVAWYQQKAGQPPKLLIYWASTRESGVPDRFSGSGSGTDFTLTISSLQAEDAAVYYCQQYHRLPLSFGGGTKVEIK

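Phage display of a naive human antibody library on the peptide gave the parent. This is the validation round: designs drawn from the data on random variants, tested in the same kind of assay. Several design methods are mixed in this list. Affinity was read by AlphaSeq, a pooled yeast mating assay with surface-displayed partners. Mating (16 h, 30 °C) was followed by selection of diploids and sequencing of their barcodes. Read counts were normalised to the haploid input and turned into Kd by a linear fit to BCL2-family pairs of known affinity, for each replicate. Each pool was mated in six replicate cultures.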

Variants are written as CDR1, CDR2 and CDR3 of the heavy chain (limits as in the source). Parent: GFTLNSYGIS, VIYSDGRRTFYGDSVK, GRAAGTFDS. Scale: log10 of Kd in nM, estimated from mating counts; low values are strong binders. An entry "n.d." has no value in the source: the pair was not observed among the diploids in that replicate. This suggests poor binding but is not conclusive. The range of this assay differs from that of the first round, and the authors advise against merging the two. Of ten entries with the parent sequence, four were seen in most replicates (averages 0.34 to 2.37), three in one and three in none, so single entries are noisy. In the paper, a design with two or fewer of six values counts as a poor binder. Nonspecific signal, from three strains lacking the peptide, appeared in 1% of pairings of all heavy chain designs, centred on 2.08 (5% of these signals below 0.84); values are not corrected for it.

| CDR-H1 | CDR-H2 | CDR-H3 | log10 Kd, replicates |
|---|---|---|---|
| GFTLNSYGIS | VMYSDGRRTFYTDSVK | GRIAGTFDL | n.d. n.d. 1.71 2.16 1.45 2.62 |
| GFTNNSYGIS | VIYSDGRRTMYGDSVK | GRAAGTFSS | n.d. n.d. n.d. n.d. n.d. n.d. |
| MFELNSYGIS | VIYADGRRTFYGDSVK | GEAAGTFDS | 1.65 1.44 1.51 1.00 0.59 2.54 |
| GFDLNEYGIS | VIYADGMRTAYQDSVK | GNVAGTFDM | 0.60 -0.71 -0.10 -0.04 -0.39 -0.28 |
| GFDLDEYGIS | VIYADGSRTAYADSVK | GGNAGTFDV | 1.50 1.24 1.32 2.41 1.06 1.99 |
| GFELNSYGIS | VIYSDGRRTFYIDSVK | GQAAGTFDS | n.d. n.d. n.d. n.d. n.d. n.d. |
| GFSLNSYGIS | VIYSDGRRTFYIDSVK | GKTAGTFDS | n.d. 0.51 n.d. n.d. 1.50 1.06 |
| GFDLDEYGIS | VIYADGMRSAYADSVK | GNVAGTFDV | -0.79 -0.78 -0.78 -0.75 -1.17 -1.08 |
| GFSLNSYGIS | VIYSDGRRTFYADQVK | GKEAGTFDS | 0.20 -0.24 -0.54 -0.20 0.40 -0.05 |
| GFTLESYGIS | VIYSDGRRTFYQDKVK | GRAAGTFDS | n.d. n.d. n.d. n.d. 2.17 1.54 |
| GFDLDEYGIS | VIYADGKRTAYVDSVK | GNTAGTFDV | -0.51 -0.69 -1.09 -1.06 -0.72 -0.63 |
| GFTLNSYGIS | VIYSDGKRTSYQDSVK | GHAAGTFDS | n.d. n.d. 0.91 0.44 n.d. n.d. |
| GFDLNEYGIS | VIYADGMRTAYSDKVK | GTNAGTFDV | -0.84 -0.54 -1.11 -1.22 -0.66 -0.32 |
| GFDLNSYGIS | VIYSDGRRTFYDDSVK | GWAAGTFDS | 0.47 0.75 0.23 0.30 0.36 1.00 |
| GKNLDEYGVS | VIYADGKRTQYTNNFK | GTNAGFFMS | n.d. n.d. n.d. n.d. n.d. n.d. |
| GFDLNEYGIS | VIYADGRRTAYTDSVK | GEAAGTFDK | n.d. -1.66 n.d. -1.45 n.d. n.d. |
| GFDLNEYGIS | VIYADGQRTFYSDSVK | GNVAGTFDS | -0.02 -0.49 -0.43 -0.41 -0.68 -0.25 |
| GESLEEYGIS | VIYADGIREQYVDDVK | GEQGGYFVV | n.d. n.d. n.d. n.d. n.d. n.d. |
| GFDLNEYGIS | VIYADGKRTAYTDSVK | GQVAGTFDV | -0.27 -0.07 -0.12 -0.24 -0.09 -0.36 |
| GFELNSYGIS | VIYSDGRRTFYGDSVK | GNQAGTFDS | 0.38 0.89 0.26 0.67 0.19 0.73 |
| GFELNSYGIS | VIYSDGRRTFYGDNVK | GRTAGTFDT | 1.59 1.49 0.48 0.48 0.74 0.66 |
| GFNLDEYGIS | VIYADGVRTAYADSVK | GENAGTFDV | 1.05 0.47 1.10 -0.07 0.52 0.45 |
| GFSLDEYGIS | VIYADGKRQVYANTVK | GNKTMTFDI | n.d. n.d. n.d. n.d. n.d. 1.53 |
| GRDLESYGIS | VIYADGLRKAYHDSVK | GTNGGVSFV | n.d. n.d. n.d. n.d. n.d. n.d. |
| GFDLNSYGIS | VIYSDGRRTFYSDSVK | GRAGGKFDS | 0.83 1.73 1.46 1.21 1.35 0.90 |
| KFDIEEYGIS | VIYADGERTSYSNAVK | GNQGGTFNT | n.d. n.d. n.d. n.d. 1.65 0.52 |
| GFTLNEYGIS | VIYSDGRRTFYGDSVK | GRAAVTFDD | n.d. n.d. n.d. n.d. n.d. n.d. |
| GFDLNEYGIS | VIYADGMRTAYADSVK | GGNAGTFDT | 2.58 0.70 -0.23 0.94 0.61 0.32 |
| GFDLNEYGIS | VIYADGKRTFYADSVK | GSEAGTFDM | -0.46 -0.49 -0.75 -0.82 -0.58 -0.50 |
| GFDLDEYGIS | VIYADGVRTAYTDSVK | GNQAGTFDV | -0.43 -0.30 -0.42 -0.78 -0.39 -0.72 |
| GFDLDEYGIS | VIYADGMRTAYTDSVK | GNTAGTFDI | -0.19 -0.43 -0.51 -0.32 0.37 0.01 |
| GFQLNSYGIS | VIYSDGRRTFYVDQVK | GRQAGTFDS | 0.61 -0.10 0.39 0.99 0.54 -0.18 |
| GFDLNEYGIS | VIYADGRRTAYADDVK | GNNAGTFDV | -0.28 -0.48 -0.63 -0.81 -0.35 -0.40 |
| GFDLDEYGIS | VIYADGMRTAYIDSVK | GNVAGTFDL | -0.08 -0.21 -0.49 -0.43 -0.56 -0.40 |
| GFDLDEYGIS | VIYADGVRTFYADSVK | GNVAGTFDV | -0.27 -0.38 -0.47 -0.66 -0.69 -0.11 |
| GFDLNEYGIS | VIYADGSRTAYSDSVK | GNVAGTFDI | 0.12 0.22 -0.18 -0.23 0.28 0.46 |
| GFKLNEYGIS | VIYSDGRRTFYGDSVK | GKAAGTFDL | 0.45 -0.54 0.44 -0.10 -0.09 0.78 |
| GFDLNEYGIS | VIYADGMRTAYTDDVK | GENAGTFDI | -0.27 -0.59 0.22 -0.86 -0.44 0.13 |
| GFDLEEYGIS | VIYADGMRTAYADSVK | GNEAGTFDV | -0.01 -0.25 0.10 -0.48 -0.27 -0.36 |
| GFDLNEYGIS | VIYADGVRVAYQNQVK | GNIDGSFTF | n.d. n.d. n.d. n.d. n.d. n.d. |
| GFNLNSYGIS | VIYSDGRRTFYHDSVK | GKAAGTFDS | 0.67 0.54 0.75 0.51 0.30 0.37 |
| GNSLDDYGIS | VIYADGRRTMYAEKVK | GQIAGSFFH | n.d. n.d. n.d. n.d. n.d. n.d. |
| GFDLNEYGIS | VIYADGMRTAYADKVK | GQNAGTFDV | 0.12 -0.34 -0.46 -0.04 -0.56 -0.12 |
| KFSLNSYGIS | VIYSDGRRTFYGDSVK | GRQAGTFDS | n.d. n.d. n.d. n.d. n.d. n.d. |
| KFDLNSYGIS | VIYSDGRRTFYQDSVK | GNAAGTFDS | n.d. 0.32 n.d. n.d. n.d. n.d. |
| GFDLNSYGIS | VIYSDGRRTFYGDSVK | GKQAGTFDS | 0.72 0.40 0.50 0.38 0.59 0.48 |

For reference, 3 entries of the list once more:

CDR-H1,CDR-H2,CDR-H3,"log10 Kd, replicates"
GFSLNSYGIS,VIYSDGRRTFYADQVK,GKEAGTFDS,0.20 -0.24 -0.54 -0.20 0.40 -0.05
GFELNSYGIS,VIYSDGRRTFYIDSVK,GQAAGTFDS,n.d. n.d. n.d. n.d. n.d. n.d.
GFDLDEYGIS,VIYADGSRTAYADSVK,GGNAGTFDV,1.50 1.24 1.32 2.41 1.06 1.99